{
  "source": "patent US6916852B2",
  "about": "“Method for regulation of microvascular tone” (University of Tennessee Research Foundation, priority 2003, dated 2005)",
  "origin": "cited, not measured here",
  "test_system": "cannabinoid receptors",
  "conditions": "in vivo; cited from earlier work",
  "data": [
    {"compound": "Cc1c(C(=O)NN2CCCCC2)nn(-c2ccc(Cl)cc2Cl)c1-c1ccc(Cl)cc1", "note": "[SR141716A]", "values": [
      {"measurement": "effect on blood pressure (Kunos, U.S. Pat. No. 5,939,429)", "value": "prevents anandamide-induced hypotension"}
    ]}
  ]
}
